{
  "source": "patent US4681872A",
  "about": "(priority 1985, dated 1987)",
  "key": {"Staph. aureus 45": {"test_system": "Staph. aureus 45", "conditions": "BHI agar, 35°-37° C., 20-24 hours"}, "Staph. aureus 45 RAR 2": {"test_system": "Staph. aureus 45 RAR 2", "experiment": "antimicrobial spectrum, agar dilution MIC", "conditions": "BHI agar, 35°-37° C., 20-24 hours"}},
  "data": [
    {"smiles": "CCC1OC(=O)C(C)C(OC2CC(C)(OC)CC(C)O2)C(C)C(OC2OC(C)CC(N(C)C)C2O)C(C)(O)CC(C)C(=O)C(C)C2OC(=O)OC12C", "note": "(centres unmarked) [4\"-deoxyerythromycin A 11,12-carbonate]", "values": [
      {"measurement": "MIC", "setting": "Staph. aureus 45", "value": ".1 µg/mL"},
      {"measurement": "MIC", "setting": "Staph. aureus 45 RAR 2", "value": ".2 µg/mL"}
    ]}
  ]
}
